Data as given in PubChem BioAssay AID602405 (Broad Institute, 2012).
The entries are a selection whose mix differs from that of the whole data set. Activity calls are given as the source filed them. Rule as the data show it: active = inhibition above about 16% (passing the limit was not always enough); inconclusive = no clear call, values can overlap the other calls; inactive = below that.

test system: UDP-N-acetylbacillosamine N-acetyltransferase PglD (Campylobacter jejuni); assay: C. jejuni PglD acetyltransferase inhibitors, primary screen, biochemical, DTNB colorimetric, single point (AID 602405); details: purified PglD enzyme, DTNB colorimetric CoA detection; at 12.5 µM; hits give high values

| Compound | inhibition |
| --- | --- |
| COc1ccccc1OP(C)(=O)Nc1ccc(C)c(C)c1 (stereo unspecified) | inactive: -3.37% |
